Article PMC10187114

What was measured:
[1] = target: GFP-VPS35L with complete deletion of the β-hairpin (human) (UniProt Q7Z3J2); test: co-IP; GFP-nanotrap: lysate of HEK293T cells transfected with the GFP-tagged bait, GFP-trap beads, 1 h at 4°C, quantitative western blot of endogenous partners
[2] = target: GFP-VPS35L(I761G) (human) (UniProt Q7Z3J2); test: as above
[3] = target: VPS35L (human) (UniProt Q7Z3J2); test: SEC; Retriever co-expressed in insect cells, affinity purification then size-exclusion chromatography (Superdex200, 25 mM HEPES pH 8.0, 300 mM NaCl, 2 mM β-mercaptoethanol, 4°C)

| reduction in binding against wild type [1] [%] | reduction in binding against wild type [2] [%] | stoichiometry N [3] | Substance |
| --- | --- | --- | --- |
| > 50 | > 50 |  | VPS29 (endogenous) (from UniProt Q9UBQ0 1-182) (natural protein) |
|  |  | 1 | VPS29-6xHis (from UniProt Q9UBQ0 1-182) (natural protein) |
